Reference: US11446398B2, “Regulated biocircuit systems” (Obsidian Therapeutics, Inc., priority 2016, dated 2022)

Columns and labels:
HEK293T cells = assay: IL12 p40 ELISA after transient transfection of FKBP-IL12 plasmids; type: cell-based, human; settings: for Average IL12 ELISA reading, 10 μM Shield-1 / Average IL12 ELISA reading, No Shield-1: HEK293T transiently transfected with 200 ng or 1 μg plasmid, media diluted 1:50, p40 ELISA; for Average IL12 ELISA reading, 10 μM Shield-1: 10 μM Shield-1 for 6 hours; for Average IL12 ELISA reading, No Shield-1: left untreated 6 hours; for Increase in IL12 with Shield-1 over untreated: transient transfection, 10 μM Shield-1, 6 hours
Source text: Several FKBP (DD)-IL12 and DHFR (DD)-IL12 constructs (as shown in Table 18) were cloned into pLVX-IRES-Puro lentiviral vectors. FKBP(DD) is positioned at either N-terminus (Construct ID # OT-IL12-001, OT-IL12-002 and OT-IL12-003) or C-terminus (OT-IL12-004, OT-IL12-005 and OT-IL12-009) of the fusion construct. ecDHFR (R12Y, Y100I) is located at the N-terminal end of the fusion construct (OT-IL12-007). A p40 signal sequence was inserted next to the DD or IL-12. In several constructs, a furin protease cleavage site or a modified furin site was included.
HEK293T cells were transiently transfected with 200 ng or 1 μg FKBP-IL12 plasmids (OT-IL12-001, OT-IL12-002, OT-IL12-003, OT-IL12-004, and OT-IL12-005), and treated with 10 μM Shield-1 or left untreated for 6 hours. Culture media was collected from transfected cells and diluted 1:50 to measure IL12 levels using p40 ELISA.

HEK-293T cells = assay: Human IL-15 ELISA, ligand dependent IL15 production; type: cell-based; settings: 24 hrs
Protocol: To test ligand dependent IL15 production, 1 million HEK-293T cells were plated in a 6-well plate in growth media containing DMEM and 10% FBS and incubated overnight at 37° C. at 5% CO2. Cells were then transfected with 100 ng of OT-L15-001 (constitutive) or OT-IL15-002 (ecDHFR-IL15) using Lipofectamine 2000 and incubated for 48 hrs. Following the incubation, media was exchanged for growth medium containing 10 μM Trimethoprim or vehicle control and further incubated for 24 hrs. Media was collected and the undiluted media samples or media samples diluted 4, 16, 256, 1024, 4096 or 16384-fold were tested using human IL-15 ELISA.

## OT-IL12-001: p40 signal sequence; FKBP (F36V, L106P); linker1 (GGSGG); p40; linker2 (G4S)3; p35; SEQ ID NO 213299
HEK293T cells
  Average IL12 ELISA reading, 10 μM Shield-1: 1748.95
  Average IL12 ELISA reading, No Shield-1: 1289.61
  Increase in IL12 with Shield-1 over untreated: modest increase

## OT-IL12-003: p40 signal sequence; FKBP (F36V, L106P); furin (SARNRQKRS); p40; linker ((G4S)3); p35; SEQ ID NO 213301
HEK293T cells
  Average IL12 ELISA reading, 10 μM Shield-1: 2138.25
  Average IL12 ELISA reading, No Shield-1: 1762.55
  Increase in IL12 with Shield-1 over untreated: modest increase

## OT-IL15-002: IL2 signal sequence; linker [EFSTEF]; ecDHFR (R12Y, Y100I); linker2 [GGSGG]; IL15; SEQ ID NO 213391
HEK-293T cells; 10 μM TMP, media dilution 1 fold
  Average IL15 ELISA reading: 0.820
HEK-293T cells; 10 μM TMP, media dilution 4 fold
  Average IL15 ELISA reading: 0.287
HEK-293T cells; 10 μM TMP, media dilution 16 fold
  Average IL15 ELISA reading: 0.116
HEK-293T cells; 10 μM TMP, media dilution 64 fold
  Average IL15 ELISA reading: 0.073
HEK-293T cells; 10 μM TMP, media dilution 256 fold
  Average IL15 ELISA reading: 0.057
HEK-293T cells; 10 μM TMP, media dilution 1024 fold
  Average IL15 ELISA reading: 0.048
HEK-293T cells; 10 μM TMP, media dilution 4096 fold
  Average IL15 ELISA reading: 0.049
HEK-293T cells; 10 μM TMP, media dilution 16384 fold
  Average IL15 ELISA reading: 0.049
HEK-293T cells; Vehicle, media dilution 1 fold
  Average IL15 ELISA reading: 0.396
HEK-293T cells; Vehicle, media dilution 4 fold
  Average IL15 ELISA reading: 0.154
HEK-293T cells; Vehicle, media dilution 16 fold
  Average IL15 ELISA reading: 0.074
HEK-293T cells; Vehicle, media dilution 64 fold
  Average IL15 ELISA reading: 0.056
HEK-293T cells; Vehicle, media dilution 256 fold
  Average IL15 ELISA reading: 0.053
HEK-293T cells; Vehicle, media dilution 1024 fold
  Average IL15 ELISA reading: 0.053
HEK-293T cells; Vehicle, media dilution 4096 fold
  Average IL15 ELISA reading: 0.049
HEK-293T cells; Vehicle, media dilution 16384 fold
  Average IL15 ELISA reading: 0.050
